Data from article PMC5303009, “Benzenesulphonamide inhibitors of the cytolytic protein perforin” (Bioorganic & Medicinal Chemistry Letters, 2017).

What was measured:
[1] = Toxicity to KHYG-1 NK cells (Trypan blue exclusion); type: cell-based; settings: human, after 24 h, ± SEM
Protocol: The use of NK cells to secrete perforin rather than employing isolated recombinant protein is a more stringent test of a compound’s ability to block lytic activity, requiring the inhibitor to access the synaptic cleft between effector (NK) and target cells where perforin is released. In this assay, inhibitor is co-incubated with KHYG-1 NK cells in medium for 30 min at room temperature, ^51Cr-labelled target cells added and cell lysis evaluated after 4 h incubation at 37 °C by measuring ^51Cr release.
The toxicity assay was carried out in exactly the same manner as the killing assay above, but instead of adding the labelled K562 target cells, 100 μL of RPMI 0.1% BSA was added. Cells were incubated for 4 h at 37 °C and then washed ×3 in RPMI + 0.1% BSA. […] Trypan blue was added to each well. Viable (clear) cells and total (clear + blue) cells were counted, and the percentage of viable cells was calculated compared to DMSO treated cell control (% viability).

Microsome stability, rat = type: in vitro ADME; settings: sodium salt, rat microsomes, 30 min

## CN1Cc2cc(-c3ccc(-c4cncc(NS(=O)(=O)c5ccc(F)cc5F)c4)s3)ccc2C1=O [Compound 5]
[1]
  viability at 24 h, 20 µM: > 90%
Microsome stability, rat
  Microsome stability (% parent remaining), Rat: 99%
